In PMC4775281 (Structure (London, England : 1993), 2016):
pKd: −log10 of the molar value.

Columns and labels:
PLN1-19 1-19 = PLN1-19 1-19 (UniProt P26678); details: cited from earlier work
[1] = target: phospholamban PLN1-19 1-19 (Homo sapiens) (UniProt P26678); assay: ITC

PKA-C (from UniProt P05132)
pKd (PLN1-19 1-19): 4.55
pKd [1]: < 3.00
